Source: PubChem (National Center for Advancing Translational Sciences (NCATS))
Sampled rows, rich in hits. Any-hit rate of the full collection: about 16%.
TDP1 inh = blocks human tyrosyl-DNA phosphodiesterase 1; 350,000 tested, 0.28% active; Potency, µM (series often up to 130 µM), for inactives: top-dose activity change, negative = inhibition, hits mostly inhibitors; recombinant TDP1, AlphaScreen DNA substrate cleavage; also: potency is read from the fitted curve at half-maximal effect; % is scaled to controls: 0 for no effect and ±100 for the full control effect; nearly all actives have a fitted effect of over 40% in size
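Compounds were preincubated with Tdp1 (1 nM final) for 15 min at room temperature before substrate (15 nM final) started a 5 min reaction; beads (10 ug/ml final) were then added for 10 min before AlphaScreen detection.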
uPA surface inh = inhibitors of cell surface uPA generation. 330,000 tested, 0.31% active. cell surface uPA generation assay, qHTS. Potency, µM (doses to about 38.3 µM), without a hit: top-dose activity change, negative = inhibition, hits mostly inhibitors; active = well fitted inhibition curve with a large enough effect; inconclusive = small, poorly fitted or top-dose-only effect; inactive = no such curve, though single readings can be large or run the other way; tested in mouse RAW 264.7 cells; also: potency is read from the fitted curve at half-maximal effect; % is scaled to controls: 0 for no effect and ±100 for the full control effect; nearly all actives have a fitted effect of over 55% in size
DT40 TDP1 no CPT = qHTS for Inhibitors of human tyrosyl-DNA phosphodiesterase 1 (TDP1): qHTS in cells in absence of CPT; Potency, µM (series often up to 46.2 µM), for inactives: top-dose activity change, negative = growth inhibition, most hits filed as inhibitors; DT40 Tdp1-/- hTDP1 cells, no CPT, ATP luminescence, 48 h; 420,000 tested, 15% active; also: potency is read from the fitted curve at half-maximal effect; % is scaled to controls: 0 for no effect and ±100 for the full control effect; nearly all actives have a fitted effect of over 55% in size
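DT40 Tdp1-/-;hTDP1 cells, no CPT (DMSO vehicle only), 400 cells/well; compounds pin-transferred; ≥48 hr, 37 °C; CellTiter-Glo 30 min RT dark, luminescence read.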
miR-21 reporter = raises the signal of a miR-21 reporter; AID 2288; 340,000 tested, under 10 active; Potency, µM (doses to about 38.3 µM), inactives show at the top dose reporter change, positive = more light; HeLa miR-21 FLuc reporter, luciferase, 48 h; active = well fitted rising curve with a large enough effect; inconclusive = small, poorly fitted or top-dose-only effect; inactive = no such curve, though single readings can be large or run the other way;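 note: % of control where 0% means no effect; miR-21 action dims this reporter so a rising signal means less miR-21 action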
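HeLa miR-21-FLuc reporter line, endogenous miR-21; 2000 cells/well in DMEM/10% FBS; compound titration up to ~40uM final, 48 h, 37 degree Celsius; luciferase detection reagent, 15 min lysis, CCD luminescence.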
TDP1 cell CPT = DT40-hTDP1 cell growth loss with CPT | chicken DT40 Tdp1-/-;hTDP1 cells + 20 nM CPT, ATP luminescence, 48 h | Potency, µM (series often up to 46.2 µM), without a hit: top-dose activity change, negative = growth inhibition, usual class: inhibitors | 420,000 tested, 12% active | AID 686979; also: potency is read from the fitted curve at half-maximal effect; % is scaled to controls: 0 for no effect and ±100 for the full control effect; nearly all actives have a fitted effect of over 55% in size
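Chicken DT40 Tdp1-/- cells stably complemented with human TDP1 were seeded at 400 cells/well in medium containing 20 nM camptothecin, exposed to pin-transferred compounds, and grown at 37 °C for at least 48 hr. Viability was read as ATP luminescence.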
* = called active by the depositor; ? = inconclusive; . = no result given; [ ] = dose if it differs, or a comment. Unless noted, calls follow the shape of the dose curve; as a rule, active = well fitted curve in the direction sought with a large enough effect; inconclusive = small, poorly fitted or top-dose-only effect, or another doubt; inactive = no such curve, though single readings can be large; an effect the other way counts as inactive or inconclusive.

Results follow in this order: TDP1 inh	uPA surface inh	DT40 TDP1 no CPT	miR-21 reporter	TDP1 cell CPT
#1 Cc1ccccc1SCC(=O)OCC(=O)N(C)c1c(N)n(Cc2ccccc2)c(=O)[nH]c1=O
→ -8%	2%	-15%	.	14%
#2 Cc1ccc2oc(=O)n(CCOc3ccccc3Cl)c2c1
→ 1%	-16%	-29%	-7%	?
#3 CCN(CC)CCn1c(=N)n(CC(O)COc2ccccc2C)c2ccccc21 (stereo not given)
→ 0%	.	2.6µM*	3%	8.2µM*
#4 Cn1c(=O)n(CCOc2ccc(Cl)cc2Cl)c2ccccc21
→ 2%	-6%	-26%	-7%	-18%
#5 Cn1c(=O)n(CCOc2ccccc2Cl)c2ccccc21
→ 6%	0%	5.8µM*	-66%	-3%
#6 Cc1ccc2oc(=O)n(CCCOc3ccccc3Cl)c2c1
→ -14%	.	?	-53%	21µM*
#7 CCCc1[nH]n(-c2nc3ccccc3s2)c(=O)c1C=NCC(C)C
→ 4%	0%	23µM*	0%	?
#8 COC(=O)Cc1[nH]n(-c2nc3ccccc3s2)c(=O)c1C(C)=Nc1ccc(Cl)cc1
→ .	?	21µM*	-24%	10µM*
#9 CCCN=C(C)c1c(-c2ccccc2)[nH]n(-c2nc3ccccc3s2)c1=O
→ 0%	-1%	26µM*	-10%	?
#10 C/C(=N/NC(=O)c1cccs1)c1c(C)[nH]n(-c2nc3ccccc3s2)c1=O
→ 8%	1.6µM*	2.3µM*	18%	3.7µM*
#11 O=C(Nc1cc(-c2ccccc2F)nn1-c1ccccc1)c1ccccc1Br
→ 3%	.	21µM*	4%	18µM*
#12 O=C(Nc1c2c(nn1-c1ccccc1)CS(=O)(=O)C2)c1ccccc1Br
→ 0%	-7%	3%	-6%	0%
#13 O=C(COc1ccccc1Cl)Nc1cc(-c2ccccc2F)nn1-c1ccccc1
→ 5%	.	9.2µM*	-4%	?
#14 CC1(C)CC(=O)C=C(c2ccc(CO)cc2)C1=O
→ .	.	-15%	.	1%
#15 CC1(C)CC(=O)C=C(c2ccc(-c3ccccc3)cc2)C1=O
→ .	.	26µM*	.	?
#16 CC1(C)CC(=O)C=C(c2ccc(-c3ccc(OC(F)(F)F)cc3)cc2)C1=O
→ .	.	10µM*	.	16µM*
#17 CC1(C)CC(=O)C=C(c2ccc(-c3ccc4[nH]ccc4c3)cc2)C1=O
→ .	.	26µM*	.	?
#18 CCn1c(CSCc2ccc(C)cc2)nnc1SCC(=O)N1CCN(c2ccccc2)CC1
→ 6%	-12%	21µM*	18%	-52%
#19 C=CCn1c(CSCc2ccccc2)nnc1SCC(=O)N1CCN(c2ccccc2)CC1
→ -5%	-4%	15µM*	6%	?
#20 CC(OC(=O)CNC(=O)c1sc2ccccc2c1Cl)C(=O)NC1(C#N)CCCCC1 (stereo not given)
→ 2%	-2%	-8%	.	-23%
#21 CC(C)(C)C(CN1CCCC1)OC(=O)c1ccccc1 (stereo not given)
→ .	-2%	0%	0%	8%
#22 O=C(Nc1cccc(F)c1)N(Cc1ccc(Cl)cc1)CC(O)C(F)(F)F (stereo not given)
→ 6%	7%	26µM*	?	?
#23 CCN(C(=O)Cc1ccccc1OC)c1nnc(-c2ccncc2)s1
→ 6%	2%	15µM*	0%	?
#24 COCCN(C(=O)CCc1ccccc1OC)c1nnc(-c2cccnc2)s1
→ 8%	-8%	?	-15%	?
#25 Cc1ccc(NC2=CC(=O)OC(C)C2)cc1 (stereo not given)
→ 3%	-4%	-3%	-1%	-2%
#26 O=C(CSc1ncc(-c2ccccc2)n1C1CCCC1)N1CCc2ccccc21
→ 3%	-4%	21µM*	0%	23µM*
#27 O=C(CSc1nc(-c2ccccc2)cc(=O)[nH]1)N1CCc2ccccc21
→ -1%	12%	16µM*	1%	21µM*
#28 O=C(CSc1nnc(-c2ccccc2)c(-c2ccccc2)n1)N1CCc2ccccc21
→ 6%	.	?	-3%	16µM*
#29 COc1cccc(-c2nn(-c3ccccc3)cc2CN(C)C(C)c2ccon2)c1 (stereo not given)
→ -10%	0%	?	1%	?
#30 O=C(Nc1ccc2c(c1)oc1ccccc12)c1ccc(Br)o1
→ 0%	3%	-24%	-54%	5%

Random excerpt: 2 entries already listed.
Results follow in this order: TDP1 inh	uPA surface inh	DT40 TDP1 no CPT	miR-21 reporter	TDP1 cell CPT
#8 COC(=O)Cc1[nH]n(-c2nc3ccccc3s2)c(=O)c1C(C)=Nc1ccc(Cl)cc1
→ .	?	21µM*	-24%	10µM*
#12 O=C(Nc1c2c(nn1-c1ccccc1)CS(=O)(=O)C2)c1ccccc1Br
→ 0%	-7%	3%	-6%	0%

More results:
Results follow in this order: TDP1 inh	uPA surface inh	DT40 TDP1 no CPT	miR-21 reporter	TDP1 cell CPT
#31 CC(C)c1nc(SCC(=O)NC2CCCCC2)c2ccccc2n1
→ 1%	-2%	?	-4%	0%
#32 Cc1cc(NC(=O)NC(=O)c2ccccc2)no1
→ 2%	4%	11%	-38%	-19%
#33 CCOC(=O)NC1(NCc2ccccc2)Oc2ccccc2O1
→ .	-30%	21µM*	-7%	?
#34 CCOC(=O)NC1(NCC(C)C)Oc2ccccc2O1
→ ?	.	-25%	0%	?
#35 c1ccc(-c2nnc3oc(-c4cccs4)nn23)cc1
→ .	.	12µM*	.	23µM*
#36 c1ccc(-c2nnc3sc(Cc4cccs4)nn23)cc1
→ 5%	2%	-21%	-46%	-29%
#37 Cc1ccc(S(=O)(=O)N/N=C/c2ccccc2F)cc1[N+](=O)[O-]
→ 1%	-7%	-1%	-6%	-7%
#38 CCN(CC)c1ccc(/C=N/NC(=O)Nc2ccccc2)cc1
→ 8%	-18%	?	-64%	?
#39 CCN(Cc1ccccc1)c1ccc(/C=N/N=C(N)N)cc1
→ 8%	-16%	13µM*	?	10µM*
#40 CCN(Cc1ccccc1)c1ccc(/C=N/NC(=S)NC(C)C)cc1
→ 5%	-1%	2.9µM*	15%	2.6µM*
#41 CCN(Cc1ccccc1)c1ccc(/C=N/NS(=O)(=O)c2ccc(C)c([N+](=O)[O-])c2)cc1
→ 1%	-1%	23µM*	-5%	?
#42 Cc1cc(=O)oc(C)c1C(=O)NCc1ccco1
→ -2%	2%	-15%	-8%	-14%
#43 Cc1ccc(C(=O)NNC(=S)Nc2cccc3ccccc23)s1
→ 7%	-6%	?	-55%	-10%
#44 CN(C)NC(=O)c1ccc([N+](=O)[O-])s1
→ 5%	?	16µM*	7%	?
#45 O=C(Nc1cccc2ccccc12)c1ccc([N+](=O)[O-])s1
→ 5%	11µM*	10µM*	?	15µM*
#46 O=C(Nc1ccccc1F)c1ccc([N+](=O)[O-])s1
→ 11%	.	21µM*	10%	21µM*
#47 O=C(Nc1cccnc1)c1ccc([N+](=O)[O-])s1
→ -2%	4.5µM*	0.65µM*	.	0.73µM*
#48 Cc1cccc(-c2nnc(SCCOc3ccc4c(C)cc(=O)oc4c3)o2)c1
→ 6%	-6%	?	0%	?
#49 CCOc1ccc(NS(=O)(=O)c2ccc(Cl)c(N=Nc3c(O)[nH]c(=S)[nH]c3=O)c2)cc1Br
→ .	.	?	.	-10%
#50 Cc1cccc(CCn2c(=O)c3ccccc3n(Cc3cccc(F)c3)c2=O)c1
→ -2%[12.3 µM]	.	23µM*	-17%	18µM*
#51 O=c1c2ccccc2n(Cc2cccc(F)c2)c(=O)n1C1CCCC1
→ -5%	-8%	23µM*	-3%	?

Record cards (already shown). Screens in order: TDP1 inh	uPA surface inh	DT40 TDP1 no CPT	miR-21 reporter	TDP1 cell CPT
Profile of CCN(Cc1ccccc1)c1ccc(/C=N/N=C(N)N)cc1 : 8%	-16%	13µM*	?	10µM*
Profile of O=C(Nc1cccnc1)c1ccc([N+](=O)[O-])s1 : -2%	4.5µM*	0.65µM*	.	0.73µM*
Profile of c1ccc(-c2nnc3oc(-c4cccs4)nn23)cc1 : .	.	12µM*	.	23µM*
